# Data taken from patent US9433573B2, “Microfabricated nanopore device for sustained release of therapeutic agent” (Delpor, Inc., priority 2001, dated 2016).
substance,measurement,setting,value
bovine serum albumin [BSA],"BSA clearance from blood, second phase","NanoGATE implants 7 μg/day or 15 μg/day, days 10 through 50, rats",slowly cleared
same,BSA clearance from the blood stream,"one-time 125 μg bolus, subcutaneous injection, rats",rapid clearance
